Measurements from patent US12527838B2, “Combination therapies comprising an agent that blocks the interaction between CD47 and SIRPα for treating gastric or gastroesphageal junction cancel” (ALX Oncology Inc., priority 2019, dated 2026).

What was measured:
hCD47 [1] = biological target: T1, hCD47 (Homo sapiens, UniProt Q08722); assay: Affinity for hCD47; format: binding; conditions: Table D
hCD47 [2] = biological target: T1, hCD47; assay: In vitro receptor occupancy assay; format: binding; conditions: at a concentration of ˜1 nM; FIG. 8A
Protocol: In vitro receptor occupancy assays were performed to assess the binding of Drug A, F59/magrolimab, TTI-621, and TTI-622 to hCD47. […] F59/magrolimab is a therapeutic anti-CD47 antibody comprising a human IgG4 Fc domain with WT effector function. TTI-621 is a therapeutic fusion polypeptide comprising the CD47 binding domain of human SIRPα linked to a human IgG1 Fc domain with WT effector function. TTI-622 is a therapeutic fusion polypeptide comprising the CD47 binding domain of human SIRPα linked to a to a human IgG4 Fc domain with WT effector function.

[3] = biological target: T2, interaction between hSIRPα and hCD47 (Homo sapiens, UniProt Q08722); assay: PathHunter SIRPα Signaling Bioassay; format: cell-based
T2 construct: purchased DiscoverX
Description: A validated SIRPα signaling assay (PathHunter SIRPα Signaling Bioassay from DiscoverX) was used to assess the degree to which Drug A, F59/magrolimab, TTI-621, and TTI-622 inhibit the interaction between hSIRPα and hCD47.

MC38 m/h HER2 tumors = assay: MC38 m/h HER2 colon tumor model; format: in vivo, C57BL/6 mice; conditions: Drug A 30 mg/kg 2q10d, anti-PDL1 antibody 1 mg/kg 3q5d, trastuzumab 30 mg/kg 3q5d, IP
Protocol: MC38 m/h HER2 cells were generated by infecting MC38 murine colon adenocarcinoma cells with a lentivirus vector encoding a chimera of mouse and human HER2 transmembrane and extracellular domains. MC38 m/h HER2 cells were maintained in DMEM (Thermo Fisher Scientific 11965092) supplemented with 10% FBS, 1% Penicillin-Streptomycin, 1% GlutaMAX and 1 mM Sodium Pyruvate (Thermo Fisher Scientific 11360070) at 37° C., 5% CO2 incubator. All tissue culture was performed under aseptic conditions.
Prior to implantation, a master cell bank of each cell line was generated to assure that cells used in subsequent experiments were of the same passage number. Cells were harvested and washed two times in 50 mL cold PBS (Life Technologies 10010072). After the final wash, cells were resuspended in PBS or RPMI at 5×10^6 cells/mL for MC38 m/h HER2 cell line. 100 μL of cell suspension were subcutaneously injected into the right flank of C57BL/6 mice for MC38 m/h HER2. When tumor size reached an average of 65-69 mm^3 for MC38 m/h HER2 tumors, the animals were randomized into 8 groups of 10 mice. […]
Tumor volume (mm^3) using Mitutoyo Digital Caliper (Mitutoyo America, Aurora, Illinois) and body weights were recorded two or three times per week. […] Tumor volume is calculated ([length×{width×width}]×0.5=volume in mm^3). Statistical analysis and p values were calculated using GraphPad Prism Software.

## F59/magrolimab: therapeutic anti-CD47 antibody comprising a human IgG4 Fc domain with WT effector function
hCD47 [1]
  Kd: 7 nM
hCD47 [2]
  receptor occupancy: about 90%
[3]; Table E
  EC50: 0.0744 µg/mL
[3]; at a concentration of 1 nM, FIG. 8B
  inhibition of SIRPα signaling: about 80%

## trastuzumab: anti-HER2 antibody (CAS Registry No. 180288-69-1)
MC38 m/h HER2 tumors
  tumor growth: had no effect on tumor growth
